{"source": "ChEMBL document CHEMBL4842371", "about": "(J Med Chem, 2021)", "type_in_all_cases": "functional, organism-based", "key": {"Rattus norvegicus [1]": {"system": "Rattus norvegicus", "test": "Antipsychotic activity in Sprague-Dawley rat assessed as inhibition of PCP-induced hyperactivity at 1 to 9 mg/kg, po measured after 1 to 2 hrs", "conditions": "dose 1-9 mg/kg, time 1-2 hrs"}, "Rattus norvegicus [2]": {"system": "Rattus norvegicus", "test": "Antipsychotic activity in Sprague-Dawley rat assessed as inhibition of PCP-induced hyperactivity at 1 mg/kg, po in presence of ondansetron"}, "Rattus norvegicus [3]": {"system": "Rattus norvegicus", "test": "Antipsychotic activity in Sprague-Dawley rat assessed as inhibition of PCP-induced hyperactivity at 0.5 mg/kg, po measured after 2 hrs"}, "Rattus norvegicus [4]": {"system": "Rattus norvegicus", "test": "Antipsychotic activity in Sprague-Dawley rat assessed as inhibition of PCP-induced hyperactivity at 0.5 mg/kg, po in presence of ondansetron measured after 2 hrs"}, "Rattus norvegicus [5]": {"system": "Rattus norvegicus", "test": "Antipsychotic activity in Sprague-Dawley rat assessed as inhibition of PCP-induced hyperactivity at 0.3 to 3 mg/kg, po measured after 2 hrs", "conditions": "dose 0.3-3 mg/kg"}}, "note": "Active and inactive are the calls of the source. The rule behind the calls is not given here.", "data": [{"compound": "COc1ccc(S(=O)(=O)Nc2cc(Cl)cc(Cl)c2OC)cc1N1CCNCC1", "values": [{"measurement": "Activity", "setting": "Rattus norvegicus [1]", "value": "inactive"}, {"measurement": "Activity", "setting": "Rattus norvegicus [2]", "value": "Active"}]}, {"compound": "Cc1nccn1CC1CCc2c(c3ccccc3n2C)C1=O", "note": "(stereo not given)", "values": [{"measurement": "Activity", "setting": "Rattus norvegicus [3]", "value": "inactive"}]}, {"compound": "O=S(=O)(c1cccc(Cl)c1)n1ccc2c(N[C@H]3CCNC3)nc3ccccc3c21", "values": [{"measurement": "Activity", "setting": "Rattus norvegicus [4]", "value": "Active"}, {"measurement": "Activity", "setting": "Rattus norvegicus [5]", "value": "inactive"}]}]}
